These are literature values, as cited in publication PMC3529809 (Steroids, 2012).

The data set concerns endogenous androgen receptor (AR) in MDA-MB-435 breast or LNCaP prostate cancer cells. As to conditions: read-out: Ki for endogenous AR; MDA-MB-435 or LNCaP cells; cited from earlier work.

As a reminder, the Ki is a measure of affinity in units of concentration, obtained from inhibition or displacement. Take `C[C@]12CC[C@H](O)CC1=CC[C@@H]1[C@@H]2CC[C@]2(C)C(=O)CC[C@@H]12` [DHEA, 3β-hydroxy-androst-5-ene-17-one]: the Ki was roughly 1200 nM.
